Measurements: BindingDB's records for doi:10.1021/acs.jmedchem.6b01270 (University of Tennessee Health Science Center, 2017)
pIC50: −log10 of the molar value.

Test: Inhibition of ATX (unknown origin) expressed in human A2058 cells assessed as inhibition of LPC-induced cell invasion after 20 hrs by calcein-AM dye based matrigel-mediated Boyden chamber assay

pIC50: 5.83
Compound: O=C(Nc1cc(F)c(F)c(F)c1)c1cc(S(=O)(=O)N2CCOCC2)c(Cl)cc1Cl
